Assay outcomes: PubChem BioAssay, National Center for Advancing Translational Sciences (NCATS)
Rows were chosen to be rich in hits. Some 2.1% of all compounds tested hit in one or more screens of this group.
A549 tox-1: counter-screen for Nrf2 inhibitors: cytotoxicity in A549 cells. A549 ARE-Fluc cells, CellTiter-Fluor viability, 18-24 h. Potency, µM (doses to about 46 µM), inactives show at the highest dose activity change, negative = cytotoxicity, actives largely listed as inhibitors. actives 0.16% (n = 390,000). AID 504648; note: potency is the fitted concentration of half-maximal effect; % is set by controls: 0 for no effect and ±100 for the full control effect
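Cytotoxicity counterscreen: CellTiter-Fluor fluorescence was measured in A549 ARE_Fluc cells after 18-24 h of compound exposure in a concentration series. The subsequent BugLite luminescent read reports ARE-luciferase activity.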
Nrf2 ARE act: Nrf2 pathway activation. AREc32 ARE-luciferase reporter (MCF7-derived line), luminescence, 24 h. actives 0.31% (n = 410,000). Potency, µM (highest dose often 46.1 µM), inactives show top-dose activation, usual class: activators; note: potency is the fitted concentration of half-maximal effect; % of control where 0% means no effect; nearly all actives have a fitted effect of over 65% in size
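AREc32 cells carrying an ARE-driven firefly luciferase, 1000 cells/well in OPTI-MEM with 5% FBS, dosed after overnight attachment and incubated 24 hr at 37 deg C. Steady-Glo luminescence read after 30 min at RT.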
Glioma ERSR ind: induces the endoplasmic reticulum stress response in human glioma cells; actives 0.02% (n = 420,000); Potency, µM, inactives show at the top dose activation, hits mostly activators; U87-MG GRP78 promoter luciferase reporter, 16 h; note: potency is the fitted concentration of half-maximal effect; series mostly up to about 76 µM; % of control where 0% means no effect; nearly all actives have a fitted effect of over 35% in size
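Stably transfected U87-MG glioma cells carrying a GRP78-based luciferase sensor; 16 h compound incubation. Luminescence end-point read 10 min after Bright-Glo addition at room temperature.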
Nrf2 block: inhibitors of Nrf2 signaling. actives 2.1% (n = 360,000). Potency, µM (highest dose often 46 µM), for the others: top-dose activity change, negative = inhibition, usual class: inhibitors. A549 ARE-Fluc reporter, luciferase luminescence, 18-24 h; note: potency is the fitted concentration of half-maximal effect; % is set by controls: 0 for no effect and ±100 for the full control effect; nearly all actives have a fitted effect of over 60% in size
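Two sequential reads on A549 ARE_Fluc cells exposed to compound for 18-24 h: a CellTiter-Fluor fluorescence read for viability, then a luciferase luminescence read for Nrf2/ARE activity.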
PTAP TSG101 blk: blocks PTAP/TSG101 interaction to inhibit HIV-1 budding; Fluorescence polarization, FITC-PTAP peptide / Tsg101 binding; Q99816; AID 493005; 340,000 tested, under 10 active; Potency, µM (doses to about 115 µM), for the others: top-dose activity change, negative = inhibition, hits mostly inhibitors; active = well fitted inhibition curve with a large enough effect in the main read-out, with a control signal flat, not every such curve was filed as active; inconclusive = small, poorly fitted or top-dose-only effect, or effect the other way, or a change in a side signal; inactive = no such curve, though single readings can be large or run the other way; note: potency is the fitted concentration of half-maximal effect; % of control where 0% means no effect
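FP read-out: FITC-PTAP peptide, 50 nM final, binding Tsg101 binding domain, 10 uM final; 20 min, r.t.; 10 mM HEPES pH 7.5, 0.15 M NaCl, 0.01% Tween 20, 3 mM EDTA, 0.1 mM TCEP.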
miR-21 FLuc: miR-21 reporter, rising signal; 340,000 tested, under 10 active; Potency, µM (highest dose often 38.3 µM), for the others: top-dose reporter change, positive = more light; HeLa miR-21 FLuc reporter, luciferase, 48 h; active = well fitted rising curve with a large enough effect; inconclusive = small, poorly fitted or top-dose-only effect; inactive = no such curve, though single readings can be large or run the other way;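 further: % of control where 0% means no effect; miR-21 action dims this reporter so a rising signal means less miR-21 action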
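HeLa miR-21-FLuc reporter line, endogenous miR-21; 2000 cells/well in DMEM/10% FBS; compound titration up to ~40uM final, 48 h, 37 degree Celsius; luciferase detection reagent, 15 min lysis, CCD luminescence.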
FLuc counter 3: counter-screen for Nrf2 inhibitors: firefly luciferase enzyme inhibition. shares compounds with Nrf2 block. purified firefly luciferase, luminescence inhibition. Potency, µM (doses to about 57.5 µM), for the others: top-dose activity change, negative = inhibition, usual class: inhibitors. actives 4% (n = 1,400); note: potency is the fitted concentration of half-maximal effect; % is set by controls: 0 for no effect and ±100 for the full control effect; nearly all actives have a fitted effect of over 65% in size
A549 tox-2: counter-screen for Nrf2 inhibitors: cytotoxicity in A549 ARE cells; shares compounds with Nrf2 block; A549 ARE-Fluc cells, cytotoxicity counterscreen; Potency, µM (doses to about 46.1 µM), for inactives: at the highest dose activity change, negative = cytotoxicity, usual class: inhibitors; actives 2% (n = 1,400); AID 720523;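 note: potency is the fitted concentration of half-maximal effect; cells exposed to compounds for 18 to 24 hours; % is set by controls: 0 for no effect and ±100 for the full control effect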
Nrf2 ARE inh: reduces Nrf2 ARE reporter signal in A549 cells. shares compounds with Nrf2 block. A549 ARE-firefly luciferase reporter, luminescence. Potency, µM (doses to about 46.1 µM), for inactives: at the highest dose activity change, negative = inhibition, actives largely listed as inhibitors. actives 74% (n = 1,400); note: potency is the fitted concentration of half-maximal effect; % is set by controls: 0 for no effect and ±100 for the full control effect; nearly all actives have a fitted effect of over 65% in size
* = called active by the depositor; ? = inconclusive; nt = no result shown. Unless noted, calls come from the whole dose curve; as a rule, active = well fitted curve in the direction sought with a large enough effect; inconclusive = small, poorly fitted or top-dose-only effect, or another doubt; inactive = no such curve, though single readings can be large; an effect the other way counts as inactive or inconclusive.

No.	SMILES	A549 tox-1	Nrf2 ARE act	Glioma ERSR ind	Nrf2 block	PTAP TSG101 blk	miR-21 FLuc	FLuc counter 3	A549 tox-2	Nrf2 ARE inh
1	CCCCNc1cc(C(=O)O)cc(S(N)(=O)=O)c1Oc1ccccc1	-3%	0%	-2%	5.8µM*	0%	6%	2%	-7%	6.5µM*
2	CSC1SCC2C(=O)N(C)C(C(C)C)C(=O)OCC(NC(=O)c3cnc4ccccc4n3)C(=O)NC(C)C(=O)N(C)C1C(=O)N(C)C(C(C)C)C(=O)OCC(NC(=O)c1cnc3ccccc3n1)C(=O)NC(C)C(=O)N2C (stereo not given)	?	0%	-3%	0.0065µM*	0%	nt	?	10µM*	6.5µM*
3	CCCNC[C@H](O)COc1ccccc1C(=O)CCc1ccccc1	nt	nt	-2%	nt	nt	nt	nt	nt	nt
4	COc1cc(OC)c(OC)cc1/C=C/c1cc[n+](C)c2ccccc12	nt	nt	-3%	nt	nt	nt	nt	nt	nt
5	Cc1cc(N(C)C)cc(C)c1/C=C/c1cc[n+](C)c2ccccc12	nt	nt	-5%	nt	nt	nt	-12%	-22%	nt
6	COc1cc(OC)c(/C=C/c2cc[n+](C)c3ccccc23)c(OC)c1	nt	nt	-3%	nt	nt	nt	0%	-28%	3.7µM*
7	CN(C)c1ccc(/C=C/C=C2/C=Cc3ccccc32)cc1	nt	nt	1%	nt	nt	nt	nt	nt	nt
8	Cc1nc2ccccn2c1-c1csc(Nc2cccc(O)c2)n1	-10%	15%	-3%	-2%	-8%	-12%	nt	nt	nt
9	Cc1cccc(Nc2nc(-c3c(C)nc4ccccn34)cs2)c1	-24%	7%	4%	9.2µM*	-7%	26%	-28%	-21%	6.5µM*
10	CCCCN(C(=O)c1ccc(N2CCCC2=O)cc1)c1c(N)n(Cc2ccccc2)c(=O)[nH]c1=O	-9%	0%	10%	5.8µM*	-2%	nt	0%	-10%	3.7µM*

Quoted from the listing.
Under Nrf2 block, cpd 2 has 0.0065µM*
Under PTAP TSG101 blk, cpd 8 has -8%
Under A549 tox-2, cpd 6 has -28%

(further entries)
No.	SMILES	A549 tox-1	Nrf2 ARE act	Glioma ERSR ind	Nrf2 block	PTAP TSG101 blk	miR-21 FLuc	FLuc counter 3	A549 tox-2	Nrf2 ARE inh
11	COCCCN(C(=O)c1ccc(N2CCCC2=O)cc1)c1c(N)n(Cc2ccccc2)c(=O)[nH]c1=O	-5%	0%	-6%	19%	0%	nt	nt	nt	nt
12	O=c1c2ccccc2sn1-c1ccc(Cl)c(S(=O)(=O)N2CCOCC2)c1	7%	nt	-6%	17%	nt	nt	nt	nt	nt
13	O=C(N/N=C\c1ccc(Cl)cc1)C1=NOC2COC3(CCN(c4ccc([N+](=O)[O-])cc4)CC3)OCC12 (stereo not given)	?	0%	-2%	2.6µM*	-4%	6%	-1%	-12%	nt
14	NNC(=O)C1=NOC2COC3(CCN(c4ncccn4)CC3)OCC12 (stereo not given)	-4%	-1%	2%	?	-7%	-6%	nt	nt	nt
15	CC(C)CN(CC(C)C)c1ccc(/C=C/c2ccnc3ccccc23)cc1	nt	nt	0%	nt	nt	nt	nt	nt	nt
16	Cc1cc(C)c(C)c(S(=O)(=O)N2CCN(c3ccccn3)CC2)c1C	2%	0%	-1%	?	-3%	-4%	nt	nt	nt
17	Cc1cc(C)c(C)c(S(=O)(=O)N2CCN(c3ncnc4ccccc34)CC2)c1C	-20%	3%	0%	9.2µM*	-1%	nt	0%	-22%	9.2µM*
18	CCCc1sc(N/N=C/c2ccccn2)nc1-c1ccc(Br)cc1	?	0%	-3%	2.9µM*	-8%	-4%	-29%	-29%	5.8µM*
19	CC(=O)Nc1sc(N/N=C/c2ccccc2)nc1-c1ccc(C)cc1	-4%	5%	3%	12%	7%	-20%	nt	nt	nt
20	CC(=O)c1ccc(N2CCN(S(=O)(=O)c3ccc4c(c3)CC(C)N4C(=O)C3CC3)CC2)cc1 (stereo not given)	-17%	-1%	-2%	5.8µM*	-6%	1%	0%	-15%	3.7µM*

Compounds above that have a Cl atom, in the order listed:
No.	SMILES	A549 tox-1	Nrf2 ARE act	Glioma ERSR ind	Nrf2 block	PTAP TSG101 blk	miR-21 FLuc	FLuc counter 3	A549 tox-2	Nrf2 ARE inh
12	O=c1c2ccccc2sn1-c1ccc(Cl)c(S(=O)(=O)N2CCOCC2)c1	7%	nt	-6%	17%	nt	nt	nt	nt	nt
13	O=C(N/N=C\c1ccc(Cl)cc1)C1=NOC2COC3(CCN(c4ccc([N+](=O)[O-])cc4)CC3)OCC12 (stereo not given)	?	0%	-2%	2.6µM*	-4%	6%	-1%	-12%	nt

The list goes on:
Key to letters: A = A549 tox-1; B = Nrf2 ARE act; C = Glioma ERSR ind; D = Nrf2 block; E = PTAP TSG101 blk; F = miR-21 FLuc; G = FLuc counter 3; H = A549 tox-2; I = Nrf2 ARE inh
21: CC(=O)N1c2ccc(S(=O)(=O)N3CCOCC3)cc2CC1C (stereo not given)
  A: 0% | B: -1% | C: -2% | D: 12% | E: -5% | F: -3% | G: nt | H: nt | I: nt
22: CC(=O)c1ccc(N2CCN(S(=O)(=O)c3ccc4c(c3)CC(C)N4C(C)=O)CC2)cc1 (stereo not given)
  A: -13% | B: 4% | C: 0% | D: 5.8µM* | E: 1% | F: 17% | G: 2.7µM* | H: -4% | I: 6%
23: O=C(/C=C/c1ccc(O)cc1)OC[C@H]1O[C@@H](Oc2c(-c3ccc(O)cc3)oc3cc(O)cc(O)c3c2=O)[C@H](O)[C@@H](O)[C@@H]1O
  A: nt | B: nt | C: 2% | D: nt | E: nt | F: nt | G: nt | H: nt | I: nt
24: CCN(C/C=C/C#CC(C)(C)C)Cc1cccc(OCc2cc(-c3ccsc3)cs2)c1
  A: nt | B: nt | C: -6% | D: nt | E: nt | F: nt | G: nt | H: nt | I: nt
25: Cc1ccccc1C(=O)N1CCc2cc(-c3nc(NC(=O)Cc4ccc5c(c4)OCO5)sc3C)ccc21
  A: -9% | B: 0% | C: 0% | D: 4.6µM* | E: -3% | F: 6% | G: -16% | H: -9% | I: 5.8µM*
26: Cc1[nH]c2ccccc2c1C(=O)COC(=O)c1ccccc1SCC(=O)N1CCCC1
  A: nt | B: nt | C: -4% | D: nt | E: nt | F: nt | G: nt | H: nt | I: nt
27: CCN(CC)S(=O)(=O)c1ccc(/C=C/C(=O)Nc2ccc(F)c(F)c2F)cc1
  A: -4% | B: 6% | C: 2% | D: ? | E: 0% | F: 17% | G: -10% | H: -5% | I: ?
28: CCN(CC)S(=O)(=O)c1ccc(/C=C/C(=O)Nc2ccc(F)cc2F)cc1
  A: -3% | B: 3% | C: 5% | D: ? | E: 0% | F: -2% | G: nt | H: nt | I: nt
29: CCN(CC)S(=O)(=O)c1ccc(/C=C/C(=O)Nc2ccc(Br)cc2F)cc1
  A: -3% | B: 4% | C: -4% | D: 9.2µM* | E: -2% | F: 13% | G: -9% | H: -2% | I: 4.6µM*
30: CCN(c1ccccc1)S(=O)(=O)c1cc(C(=O)Nc2ccc(Br)cc2)ccc1F
  A: ? | B: 5% | C: -4% | D: 5.8µM* | E: -2% | F: ? | G: -12% | H: -29% | I: 12µM*
31: COc1nnc(-c2ccc(N3CCCCC3)c(NC(=O)c3ccccc3Cl)c2)c2ccccc12
  A: -30% | B: 1% | C: 0% | D: 6.5µM* | E: nt | F: ? | G: 2% | H: -29% | I: 6.5µM*
32: COC(=O)/C=C/c1cc(O)ccc1O
  A: nt | B: nt | C: -4% | D: nt | E: nt | F: nt | G: nt | H: nt | I: nt
33: Cc1ccc(C(=O)NCc2ccco2)cc1S(=O)(=O)N1CCCCC1
  A: 5% | B: 5% | C: -4% | D: -8% | E: -2% | F: -6% | G: nt | H: nt | I: nt
34: Cc1ccc(C(=O)NCc2cccc(C(F)(F)F)c2)cc1S(=O)(=O)N1CCCCC1
  A: -14% | B: 0% | C: -4% | D: 3.7µM* | E: -10% | F: nt | G: -2% | H: -2% | I: ?
